Reference: patent US11459397B2, “Self-crosslinking antibodies” (Meditope Biosciences, Inc., priority 2016, dated 2022)

Test system: HER2 expressing SK-OV-3-Luc ovarian xenograft
Assay: efficacy in SK-OV-3-Luc ovarian xenograft subcutaneous model
Type: in vivo, mice
Description: This study was performed to evaluate the efficacy of ADC constructs against HER2 expressing SK-OV-3-Luc ovarian xenograft subcutaneous model using both bioluminescent imaging and traditional tumor caliper measurement. Sixty-five female athymic nudes, 4 weeks old of age were obtained from Charles River. SK-OV-3-Luc cells were expanded using standard tissue culture technique. On the day of implantation, 2.5×10^6 cells in incomplete media with 30% matrigel were implanted to the right lower flank of each mouse. Animals were stratified into 7 groups of 8 mice for treatment based on the total flux (Perkin Elmer IVIS Lumina XRMS II) at day 10 pi. Animals were weighed twice weekly in conjunction with tumor measurements. Bioluminescent Imaging were performed once a week. Tumor mass were calculated using the following formula: Mass (mg)=Tumor volume (mm^3)=d^2×D/2, where d and D are the shortest and longest diameter in mm, respectively.
Animals were treated according to the following table (BIW: twice a week; QW: once a week, DM1: Mertansine, MMAD: Monomethyl auristatin D, ADC: antibody-drug conjugate): […]

Substance	tumor response (3 mg/kg ip BIW)	tumor response compared to the vehicle group (9 mg/kg ip BIW, day 66 pi)
Kadcyla: trastuzumab conjugated to maytansinoid toxin; anti-Her2 ADC	showed efficacy	
Trastuzumab: anti-HER-2 antibody		complete regression
